Source: PubChem BioAssay AID2147 (National Center for Advancing Translational Sciences (NCATS), 2009)
The list shows a part of the results, in another mix than the full data. Records with an inconclusive call do not appear. The source made the active and inactive calls. Calls come from the whole dose curve; as a rule, active = well fitted inhibition curve with a large enough effect (not every such curve was filed as active); inconclusive = small, poorly fitted or top-dose-only effect, or another doubt; inactive = no such curve, though single readings can be large or run the other way.

Protein sequences, listed by entry. Tags and fused reporters are not part of them. Lines headed by an entry give the natural chain unless they say otherwise; changes in a name come on top.
UniProt B2RXH2: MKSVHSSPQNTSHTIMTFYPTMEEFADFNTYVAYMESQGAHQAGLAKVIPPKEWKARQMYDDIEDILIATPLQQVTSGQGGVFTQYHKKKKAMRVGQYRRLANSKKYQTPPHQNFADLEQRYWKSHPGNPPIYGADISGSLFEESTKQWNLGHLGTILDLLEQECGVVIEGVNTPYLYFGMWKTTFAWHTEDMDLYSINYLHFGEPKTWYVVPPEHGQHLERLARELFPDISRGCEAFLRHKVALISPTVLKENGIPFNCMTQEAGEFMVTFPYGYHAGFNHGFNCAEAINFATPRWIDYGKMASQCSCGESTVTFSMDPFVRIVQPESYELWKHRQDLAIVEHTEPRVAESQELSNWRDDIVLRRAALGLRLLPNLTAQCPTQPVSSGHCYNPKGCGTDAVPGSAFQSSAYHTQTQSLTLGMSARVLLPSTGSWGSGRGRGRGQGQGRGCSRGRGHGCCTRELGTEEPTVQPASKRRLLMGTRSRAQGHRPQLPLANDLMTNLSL

molecular target: Lysine-specific demethylase 4E (Homo sapiens) (UniProt B2RXH2); assay: qHTS Assay for Inhibitors of Human Jumonji Domain Containing 2E (JMJD2E); details: JMJD2E catalytic domain, FDH-coupled NADH fluorescence (FDH is formaldehyde dehydrogenase)
Note: nearly all actives have a fitted effect of over 50% in size.
Potency is the fitted concentration of half-maximal effect.

SMILES	Potency
CC[n+]1c(/C=C/N(C)c2ccccc2)oc2ccccc21	active: 10 µM
